The subject of this experiment is NRF2 transcriptional activity. Nature of the experiment: mGst-ARE firefly/Renilla luciferase reporter gene assay in H1299 cells (KEAP1-WT or KEAP1-C151S). Conditions: H1299, 16 h; SF 5 μM, tBHQ 50 μM, As(III) 5 μM, bixin 40 μM.

The results in this text go back to patent US10300036B2, “Compositions and methods for treating and preventing lung injury” (ARIZONA BOARD OF REGENTS on behalf of THE UNIVERSITY OF …, priority 2015, dated 2019).

As for sodium arsenite, the “NRF2 transcriptional activity, KEAP1-C151S cells” value is listed as “still able to induce”.
